Reference: ChEMBL document CHEMBL6134888, “Challenging the "Undruggable"─Targeting STAT3 but Identifying Potent TrkA-Targeted Inhibitors” (J Med Chem, 2025)
Values belong to the compound of their own block, whether it stands above or below them. Activity calls are given as the source filed them. No cut-off for these calls is given here.

By UniProt entry, the sequences of proteins in these tests, tags left out. Where a name states a change or a piece, a line headed by the entry shows the natural chain unless it says otherwise.
UniProt P40763, whole entry: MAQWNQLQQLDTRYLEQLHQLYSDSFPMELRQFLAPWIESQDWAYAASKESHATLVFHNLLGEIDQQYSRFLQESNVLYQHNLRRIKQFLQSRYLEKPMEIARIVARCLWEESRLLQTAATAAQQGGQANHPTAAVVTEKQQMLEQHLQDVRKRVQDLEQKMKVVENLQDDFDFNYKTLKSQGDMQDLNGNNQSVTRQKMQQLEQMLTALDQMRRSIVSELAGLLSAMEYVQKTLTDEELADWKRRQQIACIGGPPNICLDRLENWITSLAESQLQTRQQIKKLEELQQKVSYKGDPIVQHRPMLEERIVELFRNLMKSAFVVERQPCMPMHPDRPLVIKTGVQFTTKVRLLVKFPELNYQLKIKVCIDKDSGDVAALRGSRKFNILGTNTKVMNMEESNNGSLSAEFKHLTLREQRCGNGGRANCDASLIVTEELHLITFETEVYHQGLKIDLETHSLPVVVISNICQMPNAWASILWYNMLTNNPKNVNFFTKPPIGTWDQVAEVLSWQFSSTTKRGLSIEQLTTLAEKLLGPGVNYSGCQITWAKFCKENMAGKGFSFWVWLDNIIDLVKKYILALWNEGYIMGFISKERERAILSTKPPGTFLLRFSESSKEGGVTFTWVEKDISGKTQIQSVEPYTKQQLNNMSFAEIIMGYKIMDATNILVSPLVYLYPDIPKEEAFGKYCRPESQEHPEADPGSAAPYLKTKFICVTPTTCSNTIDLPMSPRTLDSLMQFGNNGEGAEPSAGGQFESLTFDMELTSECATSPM
UniProt P06239: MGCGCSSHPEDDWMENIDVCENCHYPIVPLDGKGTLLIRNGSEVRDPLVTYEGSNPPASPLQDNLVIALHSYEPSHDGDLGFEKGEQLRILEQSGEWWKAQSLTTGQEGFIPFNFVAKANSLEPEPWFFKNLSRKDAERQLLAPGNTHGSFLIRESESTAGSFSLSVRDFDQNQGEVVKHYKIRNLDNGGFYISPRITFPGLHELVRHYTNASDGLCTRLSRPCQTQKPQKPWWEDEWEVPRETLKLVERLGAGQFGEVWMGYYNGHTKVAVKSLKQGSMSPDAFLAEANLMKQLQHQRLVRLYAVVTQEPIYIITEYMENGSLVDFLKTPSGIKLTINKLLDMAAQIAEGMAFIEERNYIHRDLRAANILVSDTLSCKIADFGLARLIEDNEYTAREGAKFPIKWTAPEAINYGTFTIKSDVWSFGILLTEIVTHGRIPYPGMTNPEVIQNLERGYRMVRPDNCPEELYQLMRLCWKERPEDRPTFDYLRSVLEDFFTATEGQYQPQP
UniProt P51451: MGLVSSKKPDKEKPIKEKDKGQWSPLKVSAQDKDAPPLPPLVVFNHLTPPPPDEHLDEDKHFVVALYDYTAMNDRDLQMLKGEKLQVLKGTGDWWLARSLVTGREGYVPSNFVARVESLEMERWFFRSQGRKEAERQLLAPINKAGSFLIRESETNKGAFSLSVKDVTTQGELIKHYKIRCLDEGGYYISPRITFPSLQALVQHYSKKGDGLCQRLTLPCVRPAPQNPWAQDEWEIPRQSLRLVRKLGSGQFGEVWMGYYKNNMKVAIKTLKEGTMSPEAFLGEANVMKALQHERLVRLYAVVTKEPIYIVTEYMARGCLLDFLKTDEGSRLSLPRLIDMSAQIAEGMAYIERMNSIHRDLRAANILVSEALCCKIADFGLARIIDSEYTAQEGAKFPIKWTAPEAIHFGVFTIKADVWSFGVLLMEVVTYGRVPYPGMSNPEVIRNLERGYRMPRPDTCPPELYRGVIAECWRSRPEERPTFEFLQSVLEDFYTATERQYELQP
UniProt P07947, whole entry, looked up: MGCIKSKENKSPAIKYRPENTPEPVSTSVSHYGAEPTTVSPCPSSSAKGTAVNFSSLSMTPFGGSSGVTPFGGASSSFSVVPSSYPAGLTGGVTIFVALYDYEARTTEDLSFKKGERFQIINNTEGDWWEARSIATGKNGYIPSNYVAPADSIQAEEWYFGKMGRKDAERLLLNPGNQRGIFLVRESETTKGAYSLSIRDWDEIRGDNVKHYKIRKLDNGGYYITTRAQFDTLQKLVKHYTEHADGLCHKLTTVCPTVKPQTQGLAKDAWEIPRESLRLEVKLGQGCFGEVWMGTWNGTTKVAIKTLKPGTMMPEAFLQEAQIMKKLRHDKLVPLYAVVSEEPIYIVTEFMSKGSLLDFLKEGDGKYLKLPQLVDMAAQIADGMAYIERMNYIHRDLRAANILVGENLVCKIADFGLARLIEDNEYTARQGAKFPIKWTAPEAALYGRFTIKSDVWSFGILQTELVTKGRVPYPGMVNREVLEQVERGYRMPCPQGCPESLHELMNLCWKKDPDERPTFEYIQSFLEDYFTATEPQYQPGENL
Tyrosine-protein kinase ABL1 (Homo sapiens), P00519, UniProt P00519, whole entry E255K: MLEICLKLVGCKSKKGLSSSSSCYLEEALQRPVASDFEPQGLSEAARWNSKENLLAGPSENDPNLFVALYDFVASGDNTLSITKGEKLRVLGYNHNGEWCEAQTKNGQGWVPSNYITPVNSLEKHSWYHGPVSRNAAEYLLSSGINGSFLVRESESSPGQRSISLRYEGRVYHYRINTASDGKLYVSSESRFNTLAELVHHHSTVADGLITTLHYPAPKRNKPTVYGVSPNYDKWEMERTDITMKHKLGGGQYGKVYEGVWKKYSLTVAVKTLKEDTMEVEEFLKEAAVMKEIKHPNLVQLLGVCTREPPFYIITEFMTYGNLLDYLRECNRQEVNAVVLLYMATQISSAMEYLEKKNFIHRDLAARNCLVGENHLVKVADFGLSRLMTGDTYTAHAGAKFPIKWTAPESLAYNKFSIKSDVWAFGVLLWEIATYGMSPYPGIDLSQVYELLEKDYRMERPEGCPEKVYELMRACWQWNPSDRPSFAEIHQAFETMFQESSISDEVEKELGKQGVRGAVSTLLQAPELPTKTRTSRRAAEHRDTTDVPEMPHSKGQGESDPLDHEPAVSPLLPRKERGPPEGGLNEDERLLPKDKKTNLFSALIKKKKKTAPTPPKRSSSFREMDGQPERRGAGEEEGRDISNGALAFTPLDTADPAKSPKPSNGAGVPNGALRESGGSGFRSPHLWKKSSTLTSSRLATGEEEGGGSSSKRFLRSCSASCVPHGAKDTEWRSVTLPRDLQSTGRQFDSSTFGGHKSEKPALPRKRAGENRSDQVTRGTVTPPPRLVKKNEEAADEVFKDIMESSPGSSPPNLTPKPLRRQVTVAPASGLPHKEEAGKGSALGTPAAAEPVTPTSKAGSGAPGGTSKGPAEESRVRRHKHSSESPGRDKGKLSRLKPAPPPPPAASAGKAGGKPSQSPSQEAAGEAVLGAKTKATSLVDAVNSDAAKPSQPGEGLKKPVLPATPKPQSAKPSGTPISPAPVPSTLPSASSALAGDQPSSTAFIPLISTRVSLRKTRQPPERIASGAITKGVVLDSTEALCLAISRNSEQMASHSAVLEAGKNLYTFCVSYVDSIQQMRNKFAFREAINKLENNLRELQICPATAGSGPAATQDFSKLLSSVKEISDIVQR
UniProt P54764, whole entry: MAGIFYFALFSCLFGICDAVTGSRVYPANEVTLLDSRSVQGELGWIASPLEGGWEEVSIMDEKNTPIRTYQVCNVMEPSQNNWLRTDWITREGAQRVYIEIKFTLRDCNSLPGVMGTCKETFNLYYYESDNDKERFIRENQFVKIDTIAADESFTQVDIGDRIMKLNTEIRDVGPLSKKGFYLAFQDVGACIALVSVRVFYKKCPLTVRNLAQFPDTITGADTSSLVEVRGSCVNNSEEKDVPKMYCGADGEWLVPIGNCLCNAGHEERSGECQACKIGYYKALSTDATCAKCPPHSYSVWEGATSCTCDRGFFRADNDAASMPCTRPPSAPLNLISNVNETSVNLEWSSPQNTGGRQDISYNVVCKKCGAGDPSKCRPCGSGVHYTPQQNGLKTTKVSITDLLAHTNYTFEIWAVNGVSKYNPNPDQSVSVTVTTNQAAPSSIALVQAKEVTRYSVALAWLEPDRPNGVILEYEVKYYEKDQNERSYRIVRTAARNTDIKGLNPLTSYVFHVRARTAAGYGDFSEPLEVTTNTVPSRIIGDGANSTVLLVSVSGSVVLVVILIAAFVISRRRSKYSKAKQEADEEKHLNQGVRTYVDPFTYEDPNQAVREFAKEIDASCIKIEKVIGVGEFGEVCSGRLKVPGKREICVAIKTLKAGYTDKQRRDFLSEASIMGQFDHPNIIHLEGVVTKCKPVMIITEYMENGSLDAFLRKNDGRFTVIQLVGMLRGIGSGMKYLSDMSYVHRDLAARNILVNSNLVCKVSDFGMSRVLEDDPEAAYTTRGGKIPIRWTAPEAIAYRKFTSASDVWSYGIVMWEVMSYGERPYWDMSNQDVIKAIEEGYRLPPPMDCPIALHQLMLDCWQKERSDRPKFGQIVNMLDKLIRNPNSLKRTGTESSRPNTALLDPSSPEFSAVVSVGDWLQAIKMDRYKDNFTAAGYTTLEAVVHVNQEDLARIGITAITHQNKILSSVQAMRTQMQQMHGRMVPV
UniProt Q05397, whole entry, looked up: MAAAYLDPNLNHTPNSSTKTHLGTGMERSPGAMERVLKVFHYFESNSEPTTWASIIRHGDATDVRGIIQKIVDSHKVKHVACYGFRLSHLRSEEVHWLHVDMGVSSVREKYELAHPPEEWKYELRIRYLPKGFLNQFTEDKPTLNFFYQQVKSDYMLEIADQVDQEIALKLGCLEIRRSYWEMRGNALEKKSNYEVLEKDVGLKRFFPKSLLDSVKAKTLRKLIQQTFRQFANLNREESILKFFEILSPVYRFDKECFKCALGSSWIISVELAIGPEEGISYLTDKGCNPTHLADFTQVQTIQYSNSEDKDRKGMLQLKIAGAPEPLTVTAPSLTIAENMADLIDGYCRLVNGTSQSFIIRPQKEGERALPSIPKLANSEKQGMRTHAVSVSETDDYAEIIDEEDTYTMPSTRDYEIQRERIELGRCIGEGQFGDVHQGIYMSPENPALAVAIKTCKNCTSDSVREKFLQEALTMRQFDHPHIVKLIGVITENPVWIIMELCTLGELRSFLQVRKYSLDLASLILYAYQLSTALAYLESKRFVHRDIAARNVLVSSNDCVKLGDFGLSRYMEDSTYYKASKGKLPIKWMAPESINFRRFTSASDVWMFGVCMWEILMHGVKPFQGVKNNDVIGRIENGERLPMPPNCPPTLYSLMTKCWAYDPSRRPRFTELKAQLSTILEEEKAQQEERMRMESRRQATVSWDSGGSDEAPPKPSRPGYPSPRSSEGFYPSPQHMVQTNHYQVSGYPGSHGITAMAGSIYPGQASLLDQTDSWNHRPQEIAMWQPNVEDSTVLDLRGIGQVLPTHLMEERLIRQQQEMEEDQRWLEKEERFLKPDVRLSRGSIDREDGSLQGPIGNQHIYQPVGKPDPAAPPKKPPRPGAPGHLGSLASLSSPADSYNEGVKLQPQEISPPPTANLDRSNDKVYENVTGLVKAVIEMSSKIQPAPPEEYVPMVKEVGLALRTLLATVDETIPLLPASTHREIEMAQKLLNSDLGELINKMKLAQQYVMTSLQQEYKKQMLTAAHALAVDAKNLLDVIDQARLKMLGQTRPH
UniProt P29317, whole entry: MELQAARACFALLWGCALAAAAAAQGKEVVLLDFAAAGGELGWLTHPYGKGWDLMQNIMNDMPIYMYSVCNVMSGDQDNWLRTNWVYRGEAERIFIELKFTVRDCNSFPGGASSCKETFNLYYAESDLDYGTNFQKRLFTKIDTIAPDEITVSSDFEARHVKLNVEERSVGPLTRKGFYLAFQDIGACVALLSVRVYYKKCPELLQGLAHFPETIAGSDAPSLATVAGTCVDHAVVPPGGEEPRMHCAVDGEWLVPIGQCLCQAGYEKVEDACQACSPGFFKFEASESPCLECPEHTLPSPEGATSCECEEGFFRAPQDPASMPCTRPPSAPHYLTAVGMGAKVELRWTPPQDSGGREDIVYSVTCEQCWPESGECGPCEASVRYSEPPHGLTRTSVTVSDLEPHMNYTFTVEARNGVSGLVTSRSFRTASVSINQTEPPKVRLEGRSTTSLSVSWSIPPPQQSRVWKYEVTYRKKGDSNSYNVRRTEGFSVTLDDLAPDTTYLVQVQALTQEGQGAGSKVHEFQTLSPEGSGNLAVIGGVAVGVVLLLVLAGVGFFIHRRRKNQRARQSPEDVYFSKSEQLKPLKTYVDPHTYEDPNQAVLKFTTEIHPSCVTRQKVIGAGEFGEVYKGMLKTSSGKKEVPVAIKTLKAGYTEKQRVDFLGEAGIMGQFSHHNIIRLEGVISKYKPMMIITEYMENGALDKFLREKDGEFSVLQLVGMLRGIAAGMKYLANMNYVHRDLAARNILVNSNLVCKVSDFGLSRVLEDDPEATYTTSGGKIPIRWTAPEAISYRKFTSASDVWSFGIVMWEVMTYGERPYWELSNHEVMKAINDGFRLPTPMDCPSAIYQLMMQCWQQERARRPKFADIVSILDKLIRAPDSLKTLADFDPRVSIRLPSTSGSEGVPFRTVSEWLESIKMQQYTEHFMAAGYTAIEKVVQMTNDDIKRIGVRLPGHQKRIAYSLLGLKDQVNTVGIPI

How the values were obtained:
[1] = biological target: Signal transducer and activator of transcription 3 (Homo sapiens) (UniProt P40763); assay: Binding affinity to STAT3 (unknown origin) SH2 domain by FP assay
[2] = biological target: Signal transducer and activator of transcription 3 (Homo sapiens) (UniProt P40763); assay: Induction of thermal stabilization of recombinant STAT3 (127 to 668 residues)(unknown origin) assessed as reduction in fluorescence intensity incubated for 3 hrs by SYPRO orange dye based DSF analysis; details: dose 100.0 µM
[3] = biological target: Signal transducer and activator of transcription 3 (Homo sapiens) (UniProt P40763); assay: Induction of thermal stabilization of STAT3 (unknown origin) at 100 uM by thermal shift assay
[4] = biological target: T1, High affinity nerve growth factor receptor (Homo sapiens, UniProt P04629); details: dose 100.0 nM
[5] = biological target: T1, High affinity nerve growth factor receptor; details: dose 100.0 nM; remark: listed apart in the source
[6] = biological target: Signal transducer and activator of transcription 3 (Homo sapiens) (UniProt P40763); assay: Inhibition of STAT3 in oncostatin M-stimulated human U3A cells at 20 uM pretreated with compound for 1 hr followed by oncostatin M induction and measured after 6 hrs by luciferase assay relative to control; type: cell-based
[7] = biological target: T1, High affinity nerve growth factor receptor; details: dose 10.0 nM
[8] = biological target: T1, High affinity nerve growth factor receptor; details: dose 100.0 nM; remark: listed apart in the source
[9] = biological target: Tyrosine-protein kinase Lck (Homo sapiens) (UniProt P06239); details: dose 25.0 nM
[10] = biological target: Tyrosine-protein kinase Blk (Homo sapiens) (UniProt P51451); details: dose 2500.0 nM
[11] = biological target: T2, Tyrosine-protein kinase TXK (Homo sapiens) (UniProt P42681); details: dose 2500.0 nM
T2 sequence (whole entry): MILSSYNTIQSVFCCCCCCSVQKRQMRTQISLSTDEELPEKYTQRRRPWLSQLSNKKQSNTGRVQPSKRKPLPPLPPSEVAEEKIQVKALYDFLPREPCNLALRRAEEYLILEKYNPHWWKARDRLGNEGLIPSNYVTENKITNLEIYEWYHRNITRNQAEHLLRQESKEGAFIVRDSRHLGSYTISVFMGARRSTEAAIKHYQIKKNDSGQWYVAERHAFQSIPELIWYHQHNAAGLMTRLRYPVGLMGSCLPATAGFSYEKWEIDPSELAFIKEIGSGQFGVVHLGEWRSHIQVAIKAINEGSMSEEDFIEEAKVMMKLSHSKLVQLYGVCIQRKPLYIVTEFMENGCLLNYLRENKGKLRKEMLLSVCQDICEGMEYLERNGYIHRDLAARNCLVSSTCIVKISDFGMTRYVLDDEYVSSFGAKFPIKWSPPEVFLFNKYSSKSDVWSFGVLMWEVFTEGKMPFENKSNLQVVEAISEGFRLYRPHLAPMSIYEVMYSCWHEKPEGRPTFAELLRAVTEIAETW

[12] = biological target: T3, Proto-oncogene tyrosine-protein kinase Src (Homo sapiens, UniProt P12931); details: dose 2500.0 nM
[13] = biological target: T4, Tyrosine-protein kinase JAK3 (Homo sapiens) (UniProt P52333); details: dose 2500.0 nM
T4 sequence (whole entry): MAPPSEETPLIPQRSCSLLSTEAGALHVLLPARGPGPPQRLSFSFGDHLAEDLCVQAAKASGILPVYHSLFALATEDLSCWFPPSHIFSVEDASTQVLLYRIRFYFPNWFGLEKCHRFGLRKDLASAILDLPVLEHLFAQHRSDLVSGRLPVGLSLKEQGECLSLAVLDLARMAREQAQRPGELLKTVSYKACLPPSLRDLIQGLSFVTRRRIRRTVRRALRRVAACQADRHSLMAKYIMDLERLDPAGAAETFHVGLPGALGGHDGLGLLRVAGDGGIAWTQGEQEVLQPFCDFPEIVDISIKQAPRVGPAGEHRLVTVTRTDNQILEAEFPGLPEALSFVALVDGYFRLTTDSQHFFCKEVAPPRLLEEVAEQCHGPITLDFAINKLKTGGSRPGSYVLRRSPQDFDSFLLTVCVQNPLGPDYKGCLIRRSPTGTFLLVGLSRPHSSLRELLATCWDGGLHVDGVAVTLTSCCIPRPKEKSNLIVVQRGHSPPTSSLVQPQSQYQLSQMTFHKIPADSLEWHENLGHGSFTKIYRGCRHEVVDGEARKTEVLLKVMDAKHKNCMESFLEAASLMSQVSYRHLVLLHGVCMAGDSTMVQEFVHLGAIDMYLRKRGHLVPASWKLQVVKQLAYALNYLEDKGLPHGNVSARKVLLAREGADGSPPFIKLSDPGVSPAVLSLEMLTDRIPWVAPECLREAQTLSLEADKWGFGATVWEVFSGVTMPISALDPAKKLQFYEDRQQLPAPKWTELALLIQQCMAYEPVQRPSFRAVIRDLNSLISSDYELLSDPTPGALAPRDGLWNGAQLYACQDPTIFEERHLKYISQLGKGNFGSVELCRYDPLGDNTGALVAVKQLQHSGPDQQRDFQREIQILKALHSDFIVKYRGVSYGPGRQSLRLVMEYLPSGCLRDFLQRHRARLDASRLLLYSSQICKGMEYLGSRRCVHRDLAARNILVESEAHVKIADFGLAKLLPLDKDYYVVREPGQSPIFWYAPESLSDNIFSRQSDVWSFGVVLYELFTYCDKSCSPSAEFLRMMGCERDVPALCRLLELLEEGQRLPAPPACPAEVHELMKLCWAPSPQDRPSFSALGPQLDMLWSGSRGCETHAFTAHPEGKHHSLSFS

[14] = biological target: Tyrosine-protein kinase Blk (Homo sapiens) (UniProt P51451); details: dose 250.0 nM
[15] = biological target: T2, Tyrosine-protein kinase TXK (Homo sapiens); details: dose 250.0 nM
[16] = biological target: Tyrosine-protein kinase Yes (Homo sapiens) (UniProt P07947); details: dose 25.0 nM
[17] = tested on: Tyrosine-protein kinase ABL1 (Homo sapiens), P00519 [E255K]; details: dose 250.0 nM
[18] = tested on: Tyrosine-protein kinase ABL1 (Homo sapiens), P00519 [E255K]; details: dose 2500.0 nM
[19] = biological target: Ephrin type-A receptor 4 (Homo sapiens) (UniProt P54764); details: dose 250.0 nM
[20] = biological target: Focal adhesion kinase 1 (Homo sapiens) (UniProt Q05397); details: dose 2500.0 nM
[21] = biological target: Focal adhesion kinase 1 (Homo sapiens) (UniProt Q05397); details: dose 250.0 nM
[22] = biological target: Tyrosine-protein kinase Yes (Homo sapiens) (UniProt P07947); details: dose 250.0 nM
[23] = biological target: Ephrin type-A receptor 2 (Homo sapiens) (UniProt P29317); details: dose 25.0 nM
[24] = biological target: T4, Tyrosine-protein kinase JAK3 (Homo sapiens); details: dose 25.0 nM
[25] = biological target: T5, Tyrosine-protein kinase JAK2 (Homo sapiens, UniProt O60674); details: dose 250.0 nM
[26] = tested on: Tyrosine-protein kinase ABL1 (Homo sapiens), P00519 [E255K]; details: dose 25.0 nM
[27] = biological target: Ephrin type-A receptor 4 (Homo sapiens) (UniProt P54764); details: dose 2500.0 nM
[28] = biological target: T4, Tyrosine-protein kinase JAK3 (Homo sapiens); details: dose 250.0 nM
[29] = biological target: Ephrin type-A receptor 4 (Homo sapiens) (UniProt P54764); details: dose 25.0 nM
[30] = biological target: T2, Tyrosine-protein kinase TXK (Homo sapiens); details: dose 25.0 nM
[31] = biological target: Ephrin type-A receptor 2 (Homo sapiens) (UniProt P29317); details: dose 250.0 nM
[32] = biological target: T5, Tyrosine-protein kinase JAK2; details: dose 2500.0 nM
[33] = biological target: T3, Proto-oncogene tyrosine-protein kinase Src; details: dose 250.0 nM
[34] = biological target: T5, Tyrosine-protein kinase JAK2; details: dose 25.0 nM
[35] = biological target: Tyrosine-protein kinase Yes (Homo sapiens) (UniProt P07947); details: dose 2500.0 nM
[36] = biological target: Ephrin type-A receptor 2 (Homo sapiens) (UniProt P29317); details: dose 2500.0 nM
[37] = biological target: Tyrosine-protein kinase Blk (Homo sapiens) (UniProt P51451); details: dose 25.0 nM
[38] = biological target: Tyrosine-protein kinase Lck (Homo sapiens) (UniProt P06239); details: dose 250.0 nM
[39] = biological target: Tyrosine-protein kinase Lck (Homo sapiens) (UniProt P06239); details: dose 2500.0 nM
[40] = biological target: Focal adhesion kinase 1 (Homo sapiens) (UniProt Q05397); details: dose 25.0 nM

Compound: CC(Nc1nc(-c2cccc(N(C)C)c2)cnc1N)c1ccccc1 (racemic)
Activity [1]: Active
Activity [2]: Dose-dependent-effect
Activity [3]: Active
inhibition [4]: 55%
inhibition [5]: 36%
inhibition [6]: 40%

Compound: C[C@H](Nc1nc(-c2cccc(N(C)C)c2)cnc1N)c1ccccc1
inhibition [4]: 40%
inhibition [7]: 7%
inhibition [5]: 10%
inhibition [8]: 0%

Second part, the compound after the results:

inhibition [4]: 100%
inhibition [7]: 41%
inhibition [5]: 56%
inhibition [8]: 76%
Compound: C[C@@H](Nc1nc(-c2cccc(N(C)C)c2)cnc1N)c1ccccc1

Activity [1]: Active
Activity [2]: Dose-dependent-effect
Activity [3]: Active
inhibition [6]: 40%
Compound: CC(Nc1nc(-c2cccnc2)cnc1N)c1ccccc1 (racemic)

inhibition [9]: 18%
inhibition [10]: 84%
inhibition [11]: 86%
inhibition [12]: 79%
inhibition [13]: 59%
inhibition [14]: 24%
inhibition [15]: 61%
inhibition [16]: 9%
inhibition [17]: 28%
inhibition [18]: 71%
inhibition [19]: 6%
inhibition [20]: 92%
inhibition [21]: 47%
inhibition [22]: 30%
inhibition [23]: -1%
inhibition [24]: 5%
inhibition [25]: 76%
inhibition [26]: 7%
inhibition [27]: 57%
inhibition [28]: 11%
inhibition [29]: -3%
inhibition [30]: 18%
inhibition [31]: 15%
inhibition [32]: 87%
inhibition [33]: 33%
inhibition [34]: 22%
inhibition [35]: 75%
inhibition [36]: 67%
inhibition [37]: 1%
inhibition [38]: 50%
inhibition [39]: 86%
inhibition [40]: 6%
Compound: CC(=O)Nc1cccc(-c2cnc(N)c(N[C@H](C)c3ccccc3)n2)c1
